# Assay results reported in ChEMBL document CHEMBL4196118, “Discovery of MK-8318, a Potent and Selective CRTh2 Receptor Antagonist for the Treatment of Asthma” (ACS Med Chem Lett, 2018).
# What was measured:
# [1] = target: T1, Prostaglandin D2 receptor 2 (Homo sapiens, UniProt Q9Y5Y4); assay: biochemical
# T1 sequence (Q9Y5Y4 whole entry): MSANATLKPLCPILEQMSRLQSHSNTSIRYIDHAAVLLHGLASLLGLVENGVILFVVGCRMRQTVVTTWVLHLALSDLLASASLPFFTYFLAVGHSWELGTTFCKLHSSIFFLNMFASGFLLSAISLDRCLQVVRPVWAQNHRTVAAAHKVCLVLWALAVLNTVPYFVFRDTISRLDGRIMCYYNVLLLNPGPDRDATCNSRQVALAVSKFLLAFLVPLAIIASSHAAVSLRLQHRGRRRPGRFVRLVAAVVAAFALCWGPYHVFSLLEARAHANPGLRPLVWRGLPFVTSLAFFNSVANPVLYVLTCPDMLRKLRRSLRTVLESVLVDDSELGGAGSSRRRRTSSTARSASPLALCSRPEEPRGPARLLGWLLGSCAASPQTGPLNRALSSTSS
# [2] = target: T1, Prostaglandin D2 receptor 2
# [3] = target: T1, Prostaglandin D2 receptor 2; remark: listed apart in the source
IC50 [2] [nM],IC50 [3] [nM],Compound,Ki [1] [nM]
,,O=C(O)CCC(=O)N(C1CC1)[C@H]1c2ccc(F)cc2N(C(=O)c2ccc(OC(F)(F)F)cc2)[C@H]2CCC[C@H]21,3
,,O=C(O)CCC(=O)N(C1CC1)[C@H]1c2cc(CO)ccc2N(C(=O)c2ccc(OC(F)(F)F)cc2)[C@H]2CCC[C@H]21,38
24,7,O=C(O)CCC(=O)N(C1CC1)[C@H]1c2ccccc2N(C(=O)c2ccc(OC(F)(F)F)cc2)[C@H]2CC[C@H]21,
